Source: paper PMC11581428

Target: full-length recombinant TbMyo1 (Trypanosoma brucei class I myosin) (Trypanosoma brucei) (UniProt Q585L2)

For “Alexa488-phalloidin-labelled rabbit skeletal actin filaments (from UniProt P68135 1-377) (natural protein)”, the in vitro actin filament gliding assay: velocity of Alexa488-phalloidin-labelled F-actin over TbMyo1 immobilised via streptavidin on glass, 22°C, 2 mM ATP (n = 30 actin filaments) was 130 nm/s.
